pIC50: −log10 of the molar value.

By UniProt entry, the sequences of proteins in these tests, tags left out. Where a name states a change or a piece, a line headed by the entry shows the natural chain unless it says otherwise.
UniProt Q06187: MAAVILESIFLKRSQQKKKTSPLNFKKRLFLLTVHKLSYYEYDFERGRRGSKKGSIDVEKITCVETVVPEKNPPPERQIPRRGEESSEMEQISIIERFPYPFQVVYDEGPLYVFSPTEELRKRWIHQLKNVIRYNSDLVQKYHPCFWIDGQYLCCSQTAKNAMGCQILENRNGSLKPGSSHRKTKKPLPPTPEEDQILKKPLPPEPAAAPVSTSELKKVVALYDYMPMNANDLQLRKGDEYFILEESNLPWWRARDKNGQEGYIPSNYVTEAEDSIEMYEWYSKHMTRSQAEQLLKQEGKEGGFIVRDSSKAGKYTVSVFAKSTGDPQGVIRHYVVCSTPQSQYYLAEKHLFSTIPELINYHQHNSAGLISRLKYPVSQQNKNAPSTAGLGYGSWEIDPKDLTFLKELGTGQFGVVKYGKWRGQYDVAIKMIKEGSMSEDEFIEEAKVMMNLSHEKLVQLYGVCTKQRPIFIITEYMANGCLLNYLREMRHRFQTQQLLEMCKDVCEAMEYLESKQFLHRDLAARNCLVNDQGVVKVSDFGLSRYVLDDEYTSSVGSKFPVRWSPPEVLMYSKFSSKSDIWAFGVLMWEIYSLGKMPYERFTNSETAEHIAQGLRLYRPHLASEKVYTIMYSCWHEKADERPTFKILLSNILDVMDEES

For orientation: pIC50 means the IC50 on a negative log10 scale, so that one unit is a factor of ten.

The assay concerns the target Tyrosine-protein kinase BTK (Homo sapiens, UniProt Q06187).

For the compound `N#CCN1CCC(n2nc(-c3ccc(Oc4ccccc4)cc3)c(C(N)=O)c2N)CC1`, the pIC50 is 7.93.

The values are drawn from ChEMBL document CHEMBL5726848, “Bruton's tyrosine kinase inhibitors” (2019).
